Our source for the AC50 values is PubChem BioAssay (EPA / NIEHS).

A short description of the assay: STM_H9_NormalizedViability: Cytotoxicity Assessment at 120 hours in the Stemina devTOX quickPredict H9 human embryonic stem cell (hESC)-based Assay (AID 2283784). In a few lines: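 Undifferentiated H9 hESCs kept pluripotent were exposed to compound, with media and chemical replaced every 24h. CellTiter-Fluor protease-substrate fluorescence was background-corrected and normalized per plate to the 0.1% DMSO vehicle; signal loss indicates reduced viability.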

Only a part is listed here, and it is no random draw. Inconclusive results are not listed. Calls of active or inactive are those of the source. Rule for the calls: active = hit-call score of the fitted dose curve at least 0.9, where 1 is the maximum; inconclusive = response in the unintended direction; inactive = score below 0.9.

One may read the AC50 as the concentration giving half of the maximal activity seen. As for `O=[N+]([O-])c1cccc([N+](=O)[O-])c1`, the half-maximal activity concentration (AC50) was active: 68.6 µM.
